This note sets out measurements from ChEMBL document CHEMBL5500416, “Development of a Potent and Selective G2A (GPR132) Agonist” (J Med Chem, 2024).

The target of experiment [1] is T1, Chemerin-like receptor 2 (Homo sapiens) (UniProt P46091).
T1 sequence (whole entry): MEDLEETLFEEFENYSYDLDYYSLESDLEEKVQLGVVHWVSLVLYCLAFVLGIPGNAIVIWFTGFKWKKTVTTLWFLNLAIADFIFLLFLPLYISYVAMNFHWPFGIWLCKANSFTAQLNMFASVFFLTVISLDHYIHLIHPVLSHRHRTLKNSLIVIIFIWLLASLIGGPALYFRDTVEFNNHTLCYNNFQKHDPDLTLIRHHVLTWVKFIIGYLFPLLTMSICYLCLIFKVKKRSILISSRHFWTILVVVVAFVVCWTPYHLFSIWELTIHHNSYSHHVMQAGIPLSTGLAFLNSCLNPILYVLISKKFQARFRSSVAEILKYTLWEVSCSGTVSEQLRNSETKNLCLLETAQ
In words: Displacement of TAMRA-labeled C9 from Nluc/eYFP-tagged GPR1 (unknown origin) transfected in HEK293 cells incubated for 1 hrs by BRET analysis. The format is cell-based. (In general: Bioluminescence resonance energy transfer reports proximity on the nanometre scale.)

For experiment [2], the target named is T1, Chemerin-like receptor 2 (Homo sapiens). In words: Agonist activity at human GPR1 expressed in HTLA cells assessed as beta-arrestin recruitment at 10 uM incubated for 24 hrs by PRESTO-Tango assay. The format is functional, cell-based. As to conditions: filed as agonist. (Recruitment of arrestin is a read-out of receptor activation apart from second messengers.)

Experiment [3] concerns the target T2, Probable G-protein coupled receptor 132 (Mus musculus) (UniProt Q9Z282).
T2 sequence (whole entry): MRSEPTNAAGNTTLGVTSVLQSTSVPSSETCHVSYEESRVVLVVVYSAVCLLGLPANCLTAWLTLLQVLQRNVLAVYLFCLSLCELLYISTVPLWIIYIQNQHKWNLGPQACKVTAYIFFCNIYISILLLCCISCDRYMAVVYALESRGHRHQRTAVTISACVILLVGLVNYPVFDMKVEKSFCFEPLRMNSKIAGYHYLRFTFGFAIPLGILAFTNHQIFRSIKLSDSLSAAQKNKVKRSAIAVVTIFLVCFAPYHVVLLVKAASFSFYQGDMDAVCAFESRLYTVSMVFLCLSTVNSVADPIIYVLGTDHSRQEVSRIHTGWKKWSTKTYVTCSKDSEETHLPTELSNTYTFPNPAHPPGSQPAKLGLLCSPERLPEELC
In words: Agonist activity at G2A in capsaicin-induced mouse primary sensory neurons assessed as induction of TRPV1 sensitization by measuring increase in amplitude of calcium response at 100 nM preincubated with capsaicin for 30 sec followed by compound administration for 4 mins in presence of (S)-N-(1-(cyclohexylamino)-1-oxo-3-phenylpropan-2-yl)-6-hydroxy-4'-methoxy-[1,1'-biphenyl]-3-carboxamide and measured 30 sec after second capsaicin addition by calcium imaging analysis. Format: cell-based. As to conditions: Primary sensory neuron, time 4.5 min.

For experiment [4], the target named is T2, Probable G-protein coupled receptor 132 (Mus musculus). The experiment is described as follows: Agonist activity at G2A in capsaicin-induced mouse primary sensory neurons assessed as induction of TRPV1 sensitization by measuring increase in amplitude of calcium response at 400 nM preincubated with capsaicin for 30 sec followed by compound administration for 4 mins and measured 30 sec after second capsaicin addition by calcium imaging analysis. As to conditions: Primary sensory neuron, filed as agonist, time 4.5 min. Format: cell-based.

The target is the same in experiment [5]. In words: Agonist activity at G2A in capsaicin-induced mouse primary sensory neurons assessed as induction of TRPV1 sensitization by measuring increase in amplitude of calcium response at 200 nM preincubated with capsaicin for 30 sec followed by compound administration for 2 mins and measured 30 sec after second capsaicin addition by calcium imaging analysis. The format is cell-based. As to conditions: Primary sensory neuron, filed as agonist.

Experiment [6] has the same target. In words: Agonist activity at G2A in capsaicin-induced mouse primary sensory neurons assessed as induction of TRPV1 sensitization by measuring increase in amplitude of calcium response at 400 nM preincubated with capsaicin for 30 sec followed by compound administration for 4 mins in presence of (S)-N-(1-(cyclohexylamino)-1-oxo-3-phenylpropan-2-yl)-6-hydroxy-4'-methoxy-[1,1'-biphenyl]-3-carboxamide and measured 30 sec after second capsaicin addition by calcium imaging analysis. As to conditions: Primary sensory neuron, time 4.5 min. The format is cell-based.

The target is the same in experiment [7]. In words: Agonist activity at G2A in capsaicin-induced mouse primary sensory neurons assessed as induction of TRPV1 sensitization by measuring increase in amplitude of calcium response at 1 uM preincubated with capsaicin for 30 sec followed by compound administration for 2 mins and measured 30 sec after second capsaicin addition by calcium imaging analysis. The format is cell-based. As to conditions: Primary sensory neuron, filed as agonist.

Molecules are shown by their SMILES. Active and inactive are the calls of the source. The rule behind the calls is not given here.

As for `O=C(N[C@H](Cc1ccccc1)C(=O)O)c1cccc(OCc2cccnc2)c1`, the outcome in experiment [1] and in experiment [3] was inactive. Moreover, in experiment [2], the result was Active.

In the case of `CCCCC/C=C\C=C\C(O)CCCCCCCC(=O)O` (racemic), the outcome in experiment [4] and in experiment [5] was Active. In experiment [6], the outcome was inactive.

Take `O=C(NC(Cc1ccccc1)C(=O)O)c1cccc(OCc2cccnc2)c1` (configuration not stated): in experiment [7], the result was Active.
